Experimental data as given in patent publication US20110236309A1.

Experiments:
[1] = biological target: TGF-β1 (Homo sapiens (Human)) (UniProt P01137)
[2] = biological target: T1, TGF-β3 (Homo sapiens (Human)) (UniProt P10600)
T1 sequence: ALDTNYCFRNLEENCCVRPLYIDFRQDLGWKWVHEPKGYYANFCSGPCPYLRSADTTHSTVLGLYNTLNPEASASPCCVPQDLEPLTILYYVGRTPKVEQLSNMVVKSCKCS

IC50 for TGF-β1 (neutralization, Mv1Lu luciferase reporter cells) [1]: 0.506 nM
IC50 for TGF-β3 (neutralization, Mv1Lu luciferase reporter cells) [2]: 0.323 nM
Substance: TβRII-Fc (R&D Systems) (from UniProt P37173) (Fc fusion)
